One substance from paper PMC10798293 (Journal of Enzyme Inhibition and Medicinal Chemistry, 2024) can be followed below.

Where only a bound is given, the exact number is not on record here.

For assay [1], the target named is T1, SaSDH (Staphylococcus aureus shikimate dehydrogenase) (Staphylococcus aureus, UniProt Q5HFG5).
T1 sequence (Q5HFG5 1-268): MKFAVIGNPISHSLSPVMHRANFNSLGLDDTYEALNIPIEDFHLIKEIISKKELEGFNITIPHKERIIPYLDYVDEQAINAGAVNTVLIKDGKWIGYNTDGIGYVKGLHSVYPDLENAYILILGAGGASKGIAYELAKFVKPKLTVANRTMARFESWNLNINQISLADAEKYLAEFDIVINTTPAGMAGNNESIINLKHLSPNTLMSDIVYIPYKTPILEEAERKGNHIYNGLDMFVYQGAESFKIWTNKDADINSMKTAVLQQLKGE
Put plainly: SaSDH enzyme inhibition. Type of assay: biochemical.

For the next assay, the target named is T2, SaSDH (Staphylococcus aureus, UniProt Q5HFG5).
T2 sequence (Q5HFG5 1-268): T1 sequence (Q5HFG5 1-268)
The assay is described as follows: Isothermal titration calorimetry. The format is binding. As to conditions: ITC, 100 mM Tris-HCl pH 9.0, 25 °C.

For Rhodiosin, the IC50 in assay [1] (1 mM NADP, 1 mM SHK, 1.54 ng SaSDH, pH 9.0, 37 °C, 30 min) is < 100 µM. For the same substance, in assay [1] (Lineweaver-Burke plots, SHK varied 0.25-4 mM), the Ki was 73.4 µM. The substance also registered a Kd on SaSDH of 16.4 µM.
